Test results published in paper PMC9975586, “Inhibitory effect of Selaginella doederleinii hieron on human cytochrome P450” (Frontiers in Pharmacology, 2023).

By UniProt entry, the sequences of proteins in these tests, tags left out.
UniProt P33261, whole entry: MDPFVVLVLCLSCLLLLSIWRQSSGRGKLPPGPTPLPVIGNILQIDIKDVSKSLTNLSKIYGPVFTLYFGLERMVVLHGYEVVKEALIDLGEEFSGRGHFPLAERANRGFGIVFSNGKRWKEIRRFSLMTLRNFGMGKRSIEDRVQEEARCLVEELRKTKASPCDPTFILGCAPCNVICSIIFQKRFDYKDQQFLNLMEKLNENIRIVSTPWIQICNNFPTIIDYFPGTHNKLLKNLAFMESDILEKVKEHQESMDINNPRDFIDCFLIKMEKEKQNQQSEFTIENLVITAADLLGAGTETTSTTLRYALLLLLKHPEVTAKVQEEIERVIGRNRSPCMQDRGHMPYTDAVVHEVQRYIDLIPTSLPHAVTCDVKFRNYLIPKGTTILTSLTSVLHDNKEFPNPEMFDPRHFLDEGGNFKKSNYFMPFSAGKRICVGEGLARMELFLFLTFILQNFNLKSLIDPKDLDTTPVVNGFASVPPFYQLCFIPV

Legend:
[1] = molecular target: T1, CYP2C19 (Homo sapiens, UniProt P33261); test: Single substrate CYP450 inhibition method (human liver microsomes); assay type: in vitro ADME; details: single substrate Omeprazole, HLM
[2] = molecular target: T1, CYP2C19; design: method as in Spaggiari et al., 2014; details: substrate Omeprazole (2C19); ref Spaggiari et al., 2014; read-out: Literature IC50, CYP2C19; cited from earlier work
[3] = molecular target: T1, CYP2C19; test: CYP450 cocktail inhibition assay (LC-MS/MS, human liver microsomes)

IC50 [1]: 9.43 µM | IC50 [3]: 6.54 µM
Structure (SMILES): OC(Cn1cncn1)(Cn1cncn1)c1ccc(F)cc1F [Fluconazole]
IC50 [2]: 0.634 to 5.9 µM

Where two headings read alike, the source gives them in different places.
